Structures can show the parent of a compound that is named as a salt. Where two headings read alike, the source gives them in different places.
How the values were obtained:
Assay in all cases: cells
Settings in all cases: Homo sapiens
[1] = system: MV-4-11 cells
[2] = system: K562 cells
[3] = system: MOLM-13 cells
[4] = MV4-11, 72 h, read-out: GI50, cell growth inhibitory activity, MV-4-11, day 3, MV-4-11 cells, cultured 3 days, assigned by order and values
[5] = MV4-11, 168 h, read-out: GI50, cell growth inhibitory activity, MV-4-11, day 7, MV-4-11 cells, cultured 7 days, assigned by order and values
[6] = K562, 72 h, read-out: GI50, cell growth inhibitory activity, K562, day 3
[7] = K562, 168 h, read-out: GI50, cell growth inhibitory activity, K562, day 7
[8] = MOLM-13, 72 h, read-out: GI50, cell growth inhibitory activity, MOLM-13, day 3, MOLM-13 cells, cultured 3 days, assigned by order and values
[9] = MOLM-13, 168 h, read-out: GI50, cell growth inhibitory activity, MOLM-13, day 7, MOLM-13 cells, cultured 7 days, assigned by order and values

Compound `COc1cc(-c2cnc(OC)c(OC)c2)ccc1CN[C@H]1C[C@@H](O)[C@@H](N(C)c2ncnc3sc(CC(F)(F)F)cc23)C1` [Example 77, (1R,2S,4R)-4-({[4-(5,6-dimethoxypyridin-3-yl)-2-methoxyphenyl]methyl}amino)-2-{methyl[6-(2,2,2-trifluoroethyl)thieno[2,3-d]pyrimidin-4-yl]amino}cyclopentan-1-ol hydrochloride] has a GI50 [1, 4] of 0.35 µM, a GI50 [1, 5] of 0.16 µM and a GI50 [2, 6] of 2.6 µM. For the same compound, the GI50 [2, 7] was 1.62 µM, the GI50 [3, 8] was 1.17 µM and the GI50 [3, 9] was 0.501 µM.
For `COc1cc(-c2ccc(CN[C@H]3C[C@@H](O)[C@@H](N(C)c4ncnc5sc(CC(F)(F)F)cc45)C3)c(C)c2)cnc1OC` [Example 78, (1R,2S,4R)-4-({[4-(5,6-dimethoxypyridin-3-yl)-2-methylphenyl]methyl}amino)-2-{methyl[6-(2,2,2-trifluoroethyl)thieno[2,3-d]pyrimidin-4-yl]amino}cyclopentan-1-ol hydrochloride], the GI50 [1, 4] was 0.219 µM, the GI50 [1, 5] was 0.114 µM and the GI50 [2, 6] was 3.53 µM. The GI50 [2, 7] was 1.99 µM, the GI50 [3, 8] was 1.72 µM and the GI50 [3, 9] was 0.378 µM.
With `CN(c1ncnc2sc(CC(F)(F)F)cc12)[C@H]1C[C@@H](NCc2ccc(-n3cnc4ccccc43)cc2)C[C@H]1O` [Example 79, (1R,2S,4R)-4-({[4-(1H-benzimidazol-yl)phenyl]methyl}amino)-2-{methyl[6-(2,2,2-trifluoroethyl)thieno[2,3-d]pyrimidin-4-yl]amino}cyclopentan-1-ol hydrochloride] the GI50 [1, 4] was 0.313 µM, the GI50 [1, 5] was 0.173 µM and the GI50 [2, 6] was 4.34 µM. The GI50 [2, 7] was 2.12 µM, the GI50 [3, 8] was 1.64 µM and the GI50 [3, 9] was 0.482 µM.
For `CCOc1cc(-c2ccc(CN[C@H]3C[C@@H](O)[C@@H](N(C)c4ncnc5sc(CC(F)(F)F)cc45)C3)cc2)cnc1OC` [Example 80, (1R,2S,4R)-4-({[4-(5-ethoxy-6-methoxypyridin-3-yl)phenyl]methyl}amino)-2-{methyl[6-(2,2,2-trifluoroethyl)thieno[2,3-d]pyrimidin-4-yl]amino}cyclopentan-1-ol hydrochloride], the GI50 [1, 4] was 0.434 µM, the GI50 [1, 5] was 0.246 µM and the GI50 [2, 6] was 2.79 µM. The GI50 [2, 7] was 2.16 µM, the GI50 [3, 8] was 1.88 µM and the GI50 [3, 9] was 0.705 µM.
With `COc1nc(N(C)[C@H]2C[C@@H](NCc3ccc(-c4cnc(OC)c(OC)c4)cc3)C[C@H]2O)c2cc(CC(F)(F)F)sc2n1` [Example 81, (1R,2S,4R)-4-({[4-(5,6-dimethoxypyridin-3-yl)phenyl]methyl}amino)-2-{[2-methoxy-6-(2,2,2-trifluoroethyl)thieno[2,3-d]pyrimidin-4-yl](methyl)amino}cyclopentan-1-ol hydrochloride] the GI50 [1, 4] was 0.0544 µM, the GI50 [1, 5] was 0.0246 µM and the GI50 [2, 6] was 2.22 µM. The GI50 [2, 7] was 1.61 µM, the GI50 [3, 8] was 0.569 µM and the GI50 [3, 9] was 0.0943 µM.
In the case of `CNc1nc(N(C)[C@H]2C[C@@H](NCc3ccc(-c4cc(F)c(F)c(OC)c4)cc3)C[C@H]2O)c2cc(CC(F)(F)F)sc2n1` [Example 82, (1R,2S,4R)-4-{[(3′,4′-difluoro-5′-methoxy[1,1′-biphenyl]-4-yl)methyl]amino}-2-{methyl[2-(methylamino)-6-(2,2,2-trifluoroethyl)thieno[2,3-d]pyrimidin-4-yl]amino}cyclopentan-1-ol hydrochloride], the GI50 [1, 4] is reported as 0.112 µM, the GI50 [1, 5] is reported as 0.0505 µM and the GI50 [2, 6] is reported as 1.41 µM. It also gave a GI50 [2, 7] of 1.33 µM, a GI50 [3, 8] of 0.521 µM and a GI50 [3, 9] of 0.177 µM.
Compound `CN(c1ncnc2sc(CC(F)(F)F)cc12)[C@H]1C[C@@H](NCc2ccc(-c3cncc4ccccc34)cc2)C[C@H]1O` [Example 83, (1R,2S,4R)-4-({[4-(isoquinolin-4-yl)phenyl]methyl}amino)-2-{methyl[6-(2,2,2-trifluoroethyl)thieno[2,3-d]pyrimidin-4-yl]amino}cyclopentan-1-ol hydrochloride] has a GI50 [1, 4] of 0.345 µM, a GI50 [1, 5] of 0.179 µM and a GI50 [2, 6] of 2.38 µM. It also gave a GI50 [2, 7] of 1.52 µM, a GI50 [3, 8] of 1.45 µM and a GI50 [3, 9] of 0.646 µM.
In the case of `COc1cc(-c2ccc(CN[C@H]3C[C@@H](O)[C@@H](N(C)c4ncnc5sc(CC(F)(F)F)cc45)C3)cc2)nnc1Cl` [Example 84, (1R,2S,4R)-4-({[4-(6-chloro-5-methoxypyridazin-3-yl)phenyl]methyl}amino)-2-{methyl[6-(2,2,2-trifluoroethyl)thieno[2,3-d]pyrimidin-4-yl]amino}cyclopentan-1-ol hydrochloride], the GI50 [1, 4] is reported as 0.0235 µM, the GI50 [1, 5] is reported as < 0.0195 µM and the GI50 [2, 6] is reported as 5.28 µM. The GI50 [2, 7] was 3.39 µM, the GI50 [3, 8] was 0.652 µM and the GI50 [3, 9] was 0.0455 µM.
In the case of `CN(c1ncnc2sc(CC(F)(F)F)cc12)[C@H]1C[C@@H](NCc2ccc(-c3cc(F)cc4c3cnn4S(C)(=O)=O)cc2)C[C@H]1O` [Example 85, (1R,2S,4R)-4-[({4-[6-fluoro-1-(methanesulfonyl)-1H-indazol-4-yl]phenyl}methyl)amino]-2-{methyl[6-(2,2,2-trifluoroethyl)thieno[2,3-d]pyrimidin-4-yl]amino}cyclopentan-1-ol hydrochloride], the GI50 [1, 4] is reported as 0.137 µM, the GI50 [1, 5] is reported as 0.0749 µM and the GI50 [2, 6] is reported as 2.04 µM. For the same compound, the GI50 [2, 7] was 0.921 µM, the GI50 [3, 8] was 0.742 µM and the GI50 [3, 9] was 0.24 µM.
`CN(c1ncnc2sc(CC(F)(F)F)cc12)[C@H]1C[C@@H](NCc2ccc(-c3cccc(CS(C)(=O)=O)c3)cc2)C[C@H]1O` [Example 86, (1R,2S,4R)-4-[({3′-[(methanesulfonyl)methyl][1,1′biphenyl]-4-yl}methyl)amino]-2-{methyl[6-(2,2,2 trifluoroethyl)thieno[2,3-d]pyrimidin-4-yl]amino}cyclopentan-1-ol hydrochloride] gave a GI50 [1, 4] of 0.608 µM, a GI50 [1, 5] of 0.372 µM and a GI50 [2, 6] of 3.97 µM. The GI50 [2, 7] was 1.96 µM, the GI50 [3, 8] was 1.78 µM and the GI50 [3, 9] was 0.949 µM.
`CNc1nc(N(C)[C@H]2C[C@@H](NCc3ccc(-c4ccc(F)c(OC)c4F)cc3)C[C@H]2O)c2cc(CC(F)(F)F)sc2n1` [Example 87, (1R,2S,4R)-4-{[(2′,4′-difluoro-3′-methoxy[1,1′-biphenyl]-4-yl)methyl]amino}-2-{methyl[2-(methylamino)-6-(2,2,2-trifluoroethyl)thieno[2,3-d]pyrimidin-4-yl]amino}cyclopentan-1-ol hydrochloride] gave a GI50 [1, 4] of 0.165 µM, a GI50 [1, 5] of 0.114 µM and a GI50 [2, 6] of 1.76 µM. For the same compound, the GI50 [2, 7] was 1.23 µM, the GI50 [3, 8] was 0.803 µM and the GI50 [3, 9] was 0.423 µM.
`COc1cc(-c2ccc(CN[C@H]3C[C@@H](O)[C@@H](N(C)c4ncnc5sc(CC(F)(F)F)cc45)C3)cc2)cnc1C(F)(F)F` [Example 88, (1R,2S,4R)-4-[({4-[5-methoxy-6-(trifluoromethyl)pyridin-3-yl]phenyl}methyl)amino]-2-{methyl[6-(2,2,2-trifluoroethyl)thieno[2,3-d]pyrimidin-4-yl]amino}cyclopentan-1-ol hydrochloride] was tested, and the GI50 [1, 4] was 0.446 µM, the GI50 [1, 5] was 0.327 µM and the GI50 [2, 6] was 2.01 µM. It also gave a GI50 [2, 7] of 1.76 µM, a GI50 [3, 8] of 1.48 µM and a GI50 [3, 9] of 1.01 µM.
For `COc1cc(-c2ccc(CN[C@H]3C[C@@H](O)[C@@H](N(C)c4ncncc4Oc4ccc(F)cc4C(=O)N(C(C)C)C(C)C)C3)cc2)nnc1OC` [Example 89, 2-[(4-{[(1S,2R,4R)-4({[4-(5,6-dimethoxypyridazin-3-yl)phenyl]methyl}amino)-2-hydroxycyclopentyl](methyl)amino}pyrimidin-5-yl)oxy]-5-fluoro-N,N-di(propan-2-yl)benzamide hydrochloride], the GI50 [1, 4] was 0.0761 µM, the GI50 [1, 5] was 0.0467 µM and the GI50 [2, 6] was > 10 µM. The GI50 [2, 7] was > 10 µM, the GI50 [3, 8] was 7.18 µM and the GI50 [3, 9] was 0.185 µM.
In the case of `COc1nc(N(C)[C@H]2C[C@@H](NCc3ccc(-c4cc(OC)c(Cl)nn4)cc3)C[C@H]2O)c2cc(CC(F)(F)F)sc2n1` [Example 90, (1R,2S,4R)-4-({[4-(6-chloro-5methoxypyridazin-3-yl)phenyl]methyl}amino)-2-{[2-methoxy-6-(2,2,2-trifluoroethyl)thieno[2,3-d]pyrimidin-4-yl](methyl)amino}cyclopentan1-ol hydrochloride], the GI50 [1, 4] is reported as < 0.0195 µM, the GI50 [1, 5] is reported as < 0.0195 µM and the GI50 [2, 6] is reported as 0.75 µM. For the same compound, the GI50 [2, 7] was 0.636 µM, the GI50 [3, 8] was 0.324 µM and the GI50 [3, 9] was 0.0364 µM.
For `COc1nc(N(C)[C@H]2C[C@@H](NCc3ccc(-c4cnc(F)c(OC)c4)cc3)C[C@H]2O)c2cc(CC(F)(F)F)sc2n1` [Example 91, (1R,2S,4R)-4-({[4-(6-fluoro-5-methoxypyridin-3yl)phenyl]methyl}amino)-2{[2-methoxy6-(2,2,2-trifluoroethyl)thieno[2,3-d]pyrimidin-4-yl](methyl)amino}cyclopentan-1-ol hydrochloride], the GI50 [1, 4] was < 0.0195 µM, the GI50 [1, 5] was < 0.0195 µM and the GI50 [2, 6] was 0.769 µM. It also gave a GI50 [2, 7] of 0.542 µM, a GI50 [3, 8] of 0.206 µM and a GI50 [3, 9] of 0.0526 µM.
Work on `CNc1ncc(-c2ccc(CN[C@H]3C[C@@H](O)[C@@H](N(C)c4ncnc5sc(CC(F)(F)F)cc45)C3)cc2)cc1OC` [Example 92, (1R,2S,4R)-4-[({4-[5-methoxy-6-(methylamino)pyridin-3-yl]phenyl}methyl)amino]-2-{methyl[6-(2,2,2-trifluoroethyl)thieno[2,3-d]pyrimidin-4-yl]amino}cyclopentan-1-ol hydrochloride] yielded a GI50 [1, 4] of 0.0891 µM, a GI50 [1, 5] of 0.0493 µM and a GI50 [2, 6] of 3.48 µM. For the same compound, the GI50 [2, 7] was 2.79 µM, the GI50 [3, 8] was 0.826 µM and the GI50 [3, 9] was 0.12 µM.
In the case of `COc1cc(-c2ccc(CN[C@H]3C[C@@H](O)[C@@H](N(C)c4nc(Cl)nc5sc(CC(F)(F)F)cc45)C3)cc2)nnc1OC` [Example 93, (1R,2S,4R)-2-{[2-chloro-6-(2,2,2-trifluoroethyl)thieno[2,3-d]pyrimidin-4-yl](methyl)amino}-4-({[4-(5,6-dimethoxypyridazin-3-yl)phenyl]methyl}amino)cyclopentan-1-ol hydrochloride], the GI50 [1, 4] is reported as 0.0552 µM, the GI50 [1, 5] is reported as 0.0357 µM and the GI50 [2, 6] is reported as 1.38 µM. It also gave a GI50 [2, 7] of 1.41 µM, a GI50 [3, 8] of 0.659 µM and a GI50 [3, 9] of 0.107 µM.

— patent US11236106B2, “Cycloalkane-1,3-diamine derivative” (Daiichi Sankyo Company, Limited, priority 2018, dated 2022)
